This note sets out measurements from patent US10487153B2, “Carbonic anhydrase IX-specific antibodies and uses thereof” (National Research Council of Canada, priority 2015, dated 2019).

Amino acid sequences for entries named in this document (tags omitted). Residues count along the entry.
UniProt O43570, 25-301 limits assumed: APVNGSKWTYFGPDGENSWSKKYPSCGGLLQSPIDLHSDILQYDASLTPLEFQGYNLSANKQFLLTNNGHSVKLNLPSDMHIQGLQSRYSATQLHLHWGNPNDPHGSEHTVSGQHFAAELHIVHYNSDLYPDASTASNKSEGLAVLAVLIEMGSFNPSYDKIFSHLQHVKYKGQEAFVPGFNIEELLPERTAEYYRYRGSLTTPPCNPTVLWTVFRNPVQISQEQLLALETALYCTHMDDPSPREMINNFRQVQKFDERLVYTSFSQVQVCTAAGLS
UniProt O43570, 25-354: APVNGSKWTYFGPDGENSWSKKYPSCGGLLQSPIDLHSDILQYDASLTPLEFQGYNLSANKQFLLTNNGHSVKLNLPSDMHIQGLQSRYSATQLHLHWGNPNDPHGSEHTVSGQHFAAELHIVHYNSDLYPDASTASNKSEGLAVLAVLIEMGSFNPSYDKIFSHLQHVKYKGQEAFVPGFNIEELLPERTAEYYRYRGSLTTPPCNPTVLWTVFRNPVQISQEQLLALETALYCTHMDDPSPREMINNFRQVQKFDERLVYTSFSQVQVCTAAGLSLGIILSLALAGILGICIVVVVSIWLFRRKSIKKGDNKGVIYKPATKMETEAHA
UniProt Q8VHB5, 32-437: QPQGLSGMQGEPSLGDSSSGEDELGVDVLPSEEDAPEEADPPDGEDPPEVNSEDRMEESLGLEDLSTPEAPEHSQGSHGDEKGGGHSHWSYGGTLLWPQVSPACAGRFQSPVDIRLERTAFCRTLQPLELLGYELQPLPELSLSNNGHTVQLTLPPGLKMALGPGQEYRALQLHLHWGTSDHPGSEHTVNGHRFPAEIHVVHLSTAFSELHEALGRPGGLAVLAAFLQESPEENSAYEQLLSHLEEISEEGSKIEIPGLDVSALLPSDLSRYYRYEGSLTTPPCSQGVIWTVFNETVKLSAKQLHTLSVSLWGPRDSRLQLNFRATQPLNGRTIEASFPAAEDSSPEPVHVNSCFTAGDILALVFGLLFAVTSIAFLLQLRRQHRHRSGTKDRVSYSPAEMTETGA
UniProt Q8VHB5, 32-390 limits assumed: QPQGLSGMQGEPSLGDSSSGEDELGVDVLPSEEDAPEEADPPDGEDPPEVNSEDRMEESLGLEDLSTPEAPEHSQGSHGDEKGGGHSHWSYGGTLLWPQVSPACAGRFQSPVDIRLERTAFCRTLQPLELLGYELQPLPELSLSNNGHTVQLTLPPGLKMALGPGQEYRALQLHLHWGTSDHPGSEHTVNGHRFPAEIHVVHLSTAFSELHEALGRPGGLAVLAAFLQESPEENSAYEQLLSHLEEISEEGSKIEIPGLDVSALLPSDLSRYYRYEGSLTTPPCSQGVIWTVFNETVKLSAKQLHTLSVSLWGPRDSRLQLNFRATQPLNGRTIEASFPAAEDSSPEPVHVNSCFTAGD
UniProt P22748, 19-284: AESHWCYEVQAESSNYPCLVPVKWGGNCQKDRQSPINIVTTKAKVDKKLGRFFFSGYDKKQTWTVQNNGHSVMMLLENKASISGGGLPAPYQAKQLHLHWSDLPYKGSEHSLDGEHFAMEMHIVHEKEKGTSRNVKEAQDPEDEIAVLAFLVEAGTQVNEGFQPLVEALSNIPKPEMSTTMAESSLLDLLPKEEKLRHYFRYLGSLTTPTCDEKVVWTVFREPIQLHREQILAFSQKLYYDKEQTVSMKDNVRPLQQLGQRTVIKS
UniProt Q9ULX7, 16-337: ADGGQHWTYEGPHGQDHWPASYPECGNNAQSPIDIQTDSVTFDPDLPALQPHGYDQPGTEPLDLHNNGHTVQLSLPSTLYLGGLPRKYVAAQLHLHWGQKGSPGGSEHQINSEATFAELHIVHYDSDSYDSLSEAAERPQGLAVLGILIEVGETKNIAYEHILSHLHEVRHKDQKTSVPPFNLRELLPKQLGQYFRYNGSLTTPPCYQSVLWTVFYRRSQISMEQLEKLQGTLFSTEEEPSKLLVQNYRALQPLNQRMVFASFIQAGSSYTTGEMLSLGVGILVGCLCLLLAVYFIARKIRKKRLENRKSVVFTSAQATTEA

Read-outs that look alike come from different tables or passages of the source. Where only a bound is given, the exact number is not on record here.

The target of data set [1] is T1, human CA-XII extracellular domain (ECD) (Homo sapiens, UniProt O43570).
T1 construct: SPR measurements using 100 nM of human CA-XII extracellular domain (ECD)
Kind of data set: CA-XII binding by SPR. The note with it: 100 nM of human CA-XII ECD. The method, then:
(§1) A ProteON GLC chip was activated with sEDS and sNHS prior to immobilizing approximately 4000 RUs of Goat anti-human Fc (Jackson InnumoResearch) via amine (lysine) coupling in 10 mM acetate buffer pH 4.5. This surface was then used to capture c2C7 and c12H8 on different flow cells. Recombinantly-expressed (CHO cells) SEC purified dimeric CA-IX extracellular domain (ECD) from human, mouse, dog and cynomolgus monkey and human CA-XII, were prepared in PBS with 0.02% Polysorbate-20. These dilutions were then flowed over the captured antibodies at 5 different concentrations from 100 nM to 1.23 nM using a flow rate 50 μL/min. […] Kinetic association and dissociation rate constants were determined from non-linear fitting of the observed responses to a 1:1 binding mocel. These rate constants were used to calculate the binding constant KD.

A short description of data set [2]: Differential Scanning Calorimetry (DSC) thermostability. It is filed as physicochemical. The note with it: 0.125 mg/mL in PBS, 90° C./hour, 25-100° C.; Cetuximab as positive control. The method, then: Melting temperatures (Tm) were determined from the integrated thermograms using Origin 7 software. The anti-HER1 antibody Cetuximab was used as a positive control.
A general note: Differential scanning calorimetry records heat flow against a reference as temperature is scanned.

Data set [3] relates to native peptides covering the hCA-IX ECD PG domain. It is filed as binding, human. On the set-up: key: −, no binding; +, binding. The note with it: PNL6 Aga2-HA-X-MYC; clone 15 A + B; Plasmid Ctrl, no peptide. The method, then: (§2) The hCA-IX fragments covering the entire hCA-IX ECD (FIG. 13A) or the PG domain alone (FIG. 13B) were expressed as fusion proteins (Aga2-HA-(CA-IX)-MYC (pPNL6 vector) or (CA-IX)-Aga2-MYC (pPNL200 vector)) on the yeast cell surface. The YSD vectors (pPNL6 and pPNL200) were from The Pacific Northwest National Laboratory, USA. […] The binding of the mAb to yeast cells was performed using a whole yeast cell ELISA. […] The binding of mAb to denatured yeast cells was normalized to the anti-MYC signal. The ratio of normalized anti-CA-IX signals of each mAb on native versus denatured hCA-IX peptide was thus indicative of the conformational nature of the epitope. In the native hCA-IX experiments, the commercial M75 mAb was used as a positive control; the epitope of this mAb is known (Zavada et al., 2000) and is located in the hCA-IX PG domain.

Data set [4] has as its system native peptides covering the hCA-IX ECD. The class given is binding, human. On the set-up: key: −, no binding; +, binding. The method, then:
as §2

Data set [5] concerns denatured peptides covering the hCA-IX ECD. The class given is binding, human. On the set-up: key: −, no binding; +, binding. The method, then:
as §2

The target in the next data set is T2, rmCA-IX (Mus musculus, UniProt Q8VHB5).
T2 construct: purchased Sino Biologics Inc
In words: Cross-reactivity determination by SPR. The class given is binding, murine. The note with it: 100 nM analyte. The method, then: (§3) CA proteins for the analyte injection were purchased from Sino Biologics Inc.; the proteins were reconstituted as recommended by the manufacturer and diluted to 100 nM in SPR running buffer for binding analysis.
(Surface plasmon resonance follows binding to a sensor surface in real time, without labels.)

In a further data set the target is T3, rhCA-IV (Homo sapiens, UniProt P22748).
T3 construct: purchased Sino Biologics Inc
Kind of data set: Cross-reactivity determination by SPR. The class given is binding. The note with it: 100 nM analyte. The method, then: as §3

Another data set deals with T4, rhCA-XII (Homo sapiens, UniProt O43570).
T4 construct: purchased Sino Biologics Inc
Kind of data set: Cross-reactivity determination by SPR. The note with it: 100 nM analyte. The class given is binding. The method, then:
as §3

The next data set deals with T5, rhCA-XIV (Homo sapiens, UniProt Q9ULX7).
T5 construct: purchased Sino Biologics Inc
In words: Cross-reactivity determination by SPR. It is filed as binding. The note with it: 100 nM analyte. The method, then:
as §3

Data set [6] deals with dimeric CA-IX extracellular domain (ECD) from dog. In words: CA-IX species binding by SPR. The note with it: CA-IX ECD 100 nM to 1.23 nM, read-out: Specific binding, Dog. The method, then: as §1
The target of data set [7] is T6, dimeric CA-IX extracellular domain (ECD) from mouse (Mus musculus, UniProt Q8VHB5).
T6 construct: SEC purified dimeric CA-IX extracellular domain (ECD) from human, mouse, dog and cynomolgus monkey; made in house; host or cells: CHO cells
In words: CA-IX species binding by SPR. The note with it: CA-IX ECD 100 nM to 1.23 nM, read-out: Specific binding, Mouse. The method, then:
as §1

In data set [8] the target is dimeric CA-IX extracellular domain (ECD) from cynomolgus monkey. In words: CA-IX species binding by SPR. The note with it: CA-IX ECD 100 nM to 1.23 nM, read-out: Specific binding, Cynomolgus. The method, then:
as §1

In data set [9] the test system is Human-induced pluripotent (iPS) cardiomyocytes. Kind of data set: Cardiotoxicity in iPS cardiomyocytes (CellTiter-Glo). It is filed as cell-based. The note with it: 10 nM; 3 and 5 days post-treatment; compared to non-specific human IgG1 negative control and corresponding ADC. The method, then: Human-induced pluripotent (iPS) cardiomyocytes were obtained from Cellular Dynamics Inc. iPS cardiomyocytes (iCells) were thawed and cultured according to the manufacturers instructions. Briefly, cells were thawed, resuspended in iCell plating media, seeded in 0.1% gelatin-coated 96-well plates (15,000 cells/well) and maintained in a humidified incubator with 5% CO2 at 37° C. for 4 hours. Cells were then washed to remove debris and the plating media was replaced with iCell Maintenance Media which was then changed every other day during the course of the experiment. […] A non-specific negative control human IgG1 and the corresponding DM1-conjugated ADC were also used for treated the cells using the same protocol. Cell viability was measured 3 and 5 days post-treatment using the CellTiter-Glo Luminescent cell viability Assay (Promega, Madison, Wis.). Briefly, the plates and reagents were equilibrated to room temperature for 30 minutes. A volume of CellTiter-Glo reagent was added to the volume of cell culture medium present in each well and mixed on an orbital shaker for 45 minutes. The luminescence was then recorded using an EnVision plate reader (PerkinElmer Inc.)
(Cellular ATP, detected with luciferase, serves as a proxy for viable cell number.)

[10] abbreviates: PNL6 Aga2-HA-X-MYC, clone 11B, Plasmid Ctrl, Neg Ctrl.
The mark [11] stands for this setting: PNL6 series, EBY100, no plasmid, Strain Ctrl, Neg Ctrl.
[12] abbreviates: PNL200 X-Aga2-MYC, clone 22A, Plasmid Ctrl, Neg Ctrl.
[13] abbreviates: PNL200 series, EBY100, no plasmid, Strain Ctrl, Neg Ctrl.
Where [14] appears, read: PNL6 Aga2-HA-CA9-MYC, clone 3A, fragment 3, aa 1-136, SP+PG+.
Where [15] appears, read: PNL200 CA9-Aga2-MYC, clone 14A, fragment 3, aa 1-136, SP+PG+.

B1: c11H9: chimeric 11H9, human kappa1 light chain and human IgG1 heavy chain; SEQ ID NO:27 and 28 (protein)
light: DVVMTQTPLSLPVSLGDQASISCRSSQSLVHSNGNTYLHWYLQKPGQSPKLLIYKVSNRFSGVPDRFSGSGSGTDFTLKISRVEAEDLGVYFCSQNTHVPPTFGGGTKLEIKRTVAAPSVFIFPPSDEQLKSGTASVVCLLNNFYPREAKVQWKVDNALQSGNSQESVTEQDSKDSTYSLSSTLTLSKADYEKHKVYACEVTHQGLSSPVTKSFNRGEC
heavy: EVQLVESGGRLVQPKGSLKLSCAASGFTFNTYAMYWIRQAPGKGLEWVARIRSKSNNYAIYYADSVKDRFTISRDDSQSMLYLQMNNLKTEDTAMYYCVRGWDWFAYWGQGTPVTVSAASTKGPSVFPLAPSSKSTSGGTAALGCLVKDYFPEPVTVSWNSGALTSGVHTFPAVLQSSGLYSLSSVVTVPSSSLGTQTYICNVNHKPSNTKVDKKV[letters of human IgG1 Fc omitted]
modifications: Chimeric 11H9 Light Chain; Chimeric 11H9 Heavy chain
As for B1, the “binding to human CA-XII ECD” value in [1] was “no binding”. Also, the “thermostability (DSC)” value in data set [2] was “slightly less stable”. Moreover, the “Anti-hCA-IX antibody binding intensity” value in data set [3], in [4] (setting [10]), in data set [4] (setting [11]), in data set [4] (setting [12]), in data set [4] (setting [13]) and in data set [5] (setting [10]) was “−” each time. For the same molecule, the “Anti-hCA-IX antibody binding intensity” value in [5] (setting [11]), in [5] (setting [12]) and in [5] (setting [13]) was “−” each time. The “binding to rmCA-IX” value with rmCA-IX is listed as “no binding was detected”. Moreover, the “binding to rhCA-IV” value in the data set with rhCA-IV is “no binding was detected”. Also, the “binding to rhCA-XII” value in the data set with rhCA-XII was “no binding was detected”. The “binding to rhCA-XIV” value with rhCA-XIV is reported as “no binding was detected”.

B2: c2C7: chimeric 2C7, human kappa1 light chain and human IgG1 heavy chain; SEQ ID NO:25 and 26 (protein)
light: DIQMTQSPASLSASVGETVTITCRASGNIHNYLAWYQQKQGKSPQLLVYNTITLADGVPSRFSGSGSGTQYSLKINSLQPEDFGSYYCQHFWNIPFTFGAGTKLELKRTVAAPSVFIFPPSDEQLKSGTASVVCLLNNFYPREAKVQWKVDNALQSGNSQESVTEQDSKDSTYSLSSTLTLSKADYEKHKVYACEVTHQGLSSPVTKSFNRGEC
heavy: QVQLQQSGPELVKPGASVRISCKASGFTFTSCYIHWMKQRPGQGLEWIGWIYPGNGNTKYNEIFKGRATLTTDKSSSTAYMQLSSLTSEDSAVYFCARGDTTANTMDYWGQGTSVTVSSASTKGPSVFPLAPSSKSTSGGTAALGCLVKDYFPEPVTVSWNSGALTSGVHTFPAVLQSSGLYSLSSVVTVPSSSLGTQTYICNVNHKPSNTKVDKKV[letters of human IgG1 Fc omitted]
modifications: Chimeric 2C7 Light chain; Chimeric 2C7 Heavy Chain
For the molecule B2, the “binding to human CA-XII ECD” value in data set [1] is reported as “no binding”. The Kd in data set [6] was greater than 20 nM; in [7], greater than 20 nM; in data set [8] it was less than 20 nM. For the same molecule, the “impact on cell viability” value in data set [9] was “neither c2C7, c12H8 or their corresponding DM1 conjugate ADCs had any significant impact”. For the same molecule, the “Anti-hCA-IX antibody binding intensity” value in data set [3], in data set [4] (setting [14]), in [4] (setting [10]), in [4] (setting [11]), in [4] (setting [15]) and in data set [4] (setting [12]) was “−” each time. The “Anti-hCA-IX antibody binding intensity” value in [4] (setting [13]) was “−”; in data set [5] (setting [14]) it was “−”; in [5] (PNL6 Aga2-HA-CA9-MYC, clone 9A, fragment 9, aa 1-414, SP+PG+CA+), “−”; in data set [5] (setting [10]) it was “−”; in data set [5] (setting [11]) it was “−”; in data set [5] (setting [15]), “−”. Moreover, the “Anti-hCA-IX antibody binding intensity” value is reported as “−” in data set [5] (PNL200 CA9-Aga2-MYC, clone 20A, fragment 9, aa 1-414, SP+PG+CA+); “−” in [5] (setting [12]); “−” in [5] (setting [13]). Besides, the “binding to rmCA-IX” value with rmCA-IX is on record as “no binding was detected”. Also, the “binding to rhCA-IV” value with rhCA-IV is “no binding was detected”. The “binding to rhCA-XII” value with rhCA-XII is given as “no binding was detected”. In addition, the “binding to rhCA-XIV” value with rhCA-XIV was “no binding was detected”.
